The text below walks through data of ChEMBL document CHEMBL4414561, “Cholinesterase Inhibitory Arisugacins L-Q from a Penicillium sp. Isolate Obtained through a Citizen Science Initiative and Their Activities in a Phenotype-Based Zebrafish Assay” (J Nat Prod, 2019).

By UniProt entry, the sequences of proteins in these tests, tags left out. Where a name states a change or a piece, a line headed by the entry shows the natural chain unless it says otherwise.
UniProt O42275: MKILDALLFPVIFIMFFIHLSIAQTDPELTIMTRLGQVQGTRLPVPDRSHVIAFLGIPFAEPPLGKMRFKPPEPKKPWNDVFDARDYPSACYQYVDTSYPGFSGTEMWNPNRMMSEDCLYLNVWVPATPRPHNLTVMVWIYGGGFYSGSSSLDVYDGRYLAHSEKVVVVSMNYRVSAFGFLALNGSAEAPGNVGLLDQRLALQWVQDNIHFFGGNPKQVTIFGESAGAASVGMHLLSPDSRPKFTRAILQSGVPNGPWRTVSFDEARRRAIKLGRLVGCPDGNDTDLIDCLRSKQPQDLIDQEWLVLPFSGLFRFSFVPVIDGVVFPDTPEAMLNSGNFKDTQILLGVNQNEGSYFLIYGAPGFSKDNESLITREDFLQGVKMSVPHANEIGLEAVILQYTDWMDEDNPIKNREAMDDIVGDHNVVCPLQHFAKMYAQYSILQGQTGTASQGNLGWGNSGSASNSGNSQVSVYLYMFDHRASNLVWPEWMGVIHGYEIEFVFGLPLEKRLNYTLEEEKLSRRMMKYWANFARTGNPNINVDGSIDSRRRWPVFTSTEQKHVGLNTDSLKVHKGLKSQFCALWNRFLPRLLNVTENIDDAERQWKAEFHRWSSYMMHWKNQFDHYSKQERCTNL

The test concerns the target Acetylcholinesterase (Electrophorus electricus, UniProt O42275). Nature of the test: Inhibition of electric eel AChE incubated for 15 mins by Ellman's method. A digest of the protocol:
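Colorimetric kit assay with Electrophorus electricus AChE. Compound is incubated with enzyme for 15 min. Assay buffer containing AChE substrate and DTNB is then added, and absorbance is read at 0 and 15 min. Single-point screen at 50 μM; IC50 also determined.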

Turning to `CNC(=O)Oc1ccc2c(c1)[C@]1(C)CCN(C)[C@@H]1N2C` [PHYSOSTIGMINE], the IC50 turned out to be 7.8 nM.
